# Measured values: patent US10227295B2, “Selective histone deactylase 6 inhibitors” (H. LEE MOFFITT CANCER CENTER AND RESEARCH INSTITUTE, INC., priority 2013, dated 2019)
# Tested on: NRAS and BRAF mutant human melanoma cell lines
# Assay: Human melanoma cell proliferation MTS assay
# Type: cell-based
# Conditions: 24 h, panel of human melanoma cell lines
compound,measurement,value
"CCCCN(Cc1ccc(C(=O)NO)cc1)C(=O)Nc1ccccc1 [Compound 5g, 4-((1-butyl-3-phenylureido)methyl)-N-hydroxybenzamide]",concentration range inhibiting proliferation (in words),low micromolar range
